Test results taken from publication PMC6073756, “Allicin Bioavailability and Bioequivalence from Garlic Supplements and Garlic Foods” (Nutrients, 2018).
Marks after values point to notes of the source that are not given here.

Tests used:
[1] = Allicin bioavailability or bioequivalence bioassay: 32-h breath allyl methyl sulfide (AMS) concentration curve after consumption; assay type: in vivo, human
[2] = set-up: method as in PMID 25681129; details: cited from earlier work

## S(+)-allyl-L-cysteine sulfoxide [Alliin, L(+)]
[1]; in vivo
  Time at which breath AMS returned to (near) baseline, zero or undetectable: about 27 h
[1]; inferred from pure alliin
  Alliin transformed to allicin by bacterial alliinase activity: 0–4%
[1]; low-protein meal
  Time at which breath AMS was first detectable (Tmin): 0.2 h
[1]; low-protein meal, one person (n = 1)
  Allicin Bioequivalence (TKSA, RRF2): 4.6 ± 0.7 ^c %
[1]; low-protein meal, one person (n = 1), repeated tests, listed as L(+)-alliin
  Tmax: 3 to 3.5 h
[2]
  Administered alliin found in blood or urine as SAC or N-acetyl-SAC: less than 0.1%
  Dose found as unidentified compounds: 72%
  Dose found in the urine as N-acetyl-alliin: 22%
  Dose found in the urine as alliin: 6%
